The entries are a selection whose mix differs from that of the whole data set. Calls of active or inactive are those of the source. Rule as the data show it: active = activation mostly above about 9.5% (no sharp cut-off); inactive = mostly below about 7.6%.
Each compound was assayed against 5-hydroxytryptamine receptor 5A (Homo sapiens) (UniProt P47898) (assay: HTR5A agonists in luminescence cell assay, primary screen, counter-screen for OPRM1-OPRD1 heterodimer agonist project, full-deck HTS (AID 504692;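 also: 0% = cells with vehicle only and 100% = reference agonist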)). Conditions: cell-based, at 9.3 µM, active compounds read high.

By UniProt entry, the sequences of proteins in these tests, tags left out.
UniProt P47898, whole entry, looked up: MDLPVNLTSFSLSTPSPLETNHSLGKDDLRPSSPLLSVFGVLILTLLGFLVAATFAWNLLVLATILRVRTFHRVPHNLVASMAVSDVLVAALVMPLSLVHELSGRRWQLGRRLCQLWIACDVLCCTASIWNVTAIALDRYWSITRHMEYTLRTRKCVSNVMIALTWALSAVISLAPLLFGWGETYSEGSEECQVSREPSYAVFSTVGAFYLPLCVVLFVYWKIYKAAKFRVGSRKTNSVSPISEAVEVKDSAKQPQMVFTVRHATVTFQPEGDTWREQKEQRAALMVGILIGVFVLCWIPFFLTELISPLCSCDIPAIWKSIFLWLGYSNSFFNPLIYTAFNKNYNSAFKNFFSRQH

SMILES	activation
O=C(Cn1cnc2ccccc21)N/N=C/c1ccccc1	inactive: -2.87%
COc1ccc(-c2ccc3c(c2)[C@@H]2C[C@H](N(C)C(=O)C(C)(C)C)[C@H]([C@H](C)O)C(=O)N2CC3)cc1	inactive: 0.4%
CN(C)Cc1ccc(-c2nc3cccc4c3n2CCNC4=O)cc1	inactive: -4.2%
CCCC(=O)Nc1ccc2c(c1)nc1n2CCN(C2CCCCC2)C1	inactive: -2.05%
Cc1ccc(NC(=O)Cn2c(/C=C/c3ccccc3)nc3ccccc32)cc1C	inactive: -0.05%
CCN(C(=O)Cn1c(Cl)nc2c1c(=O)n(C)c(=O)n2C)C1CCCCC1	inactive: 0.16%
O=C(Cn1c(CO)nc2ccccc21)Nc1cc(C(F)(F)F)ccc1N1CCOCC1	inactive: 4.18%
CCNC(=O)Cn1cnc2c1c(=O)n(C)c(=O)n2C	inactive: 4.69%
O=C(CCCCCNC(=O)N1CCn2c1nc1ccccc12)NCc1ccccc1	inactive: -2.25%
CCN(CC)CCn1c(NCc2nc3ccccc3n2Cc2ccccc2)nc2ccccc21	inactive: 1.21%
CSc1nc2ccccc2n1CC(=O)Nc1cc(C(F)(F)F)ccc1N1CCOCC1	inactive: -1.17%
CCOc1ccc(CCNC(=O)Cn2c(-c3nonc3N)nc3ccccc32)cc1OCC	inactive: -0.74%
c1nnnn1CCn1cnnn1	inactive: -1.83%
CCC(=O)Nc1cccc(C(=O)/C=C/c2ccccc2)c1	inactive: -1.04%
CCN(CC)C(=O)CSc1nc2ccccc2n1CC(=O)N1CCN(c2ccccc2OC)CC1	inactive: -1.83%
CC(=O)c1ccc(N2CC2c2ccncc2)cc1 (centres undefined)	inactive: -2.93%
O=C(Cn1c(SCC(=O)N2CCCc3ccccc32)nc2ccccc21)N1CCCC1	inactive: 2.58%
N#C/C(=C\c1ccc(N(CCBr)CCBr)cc1)C(N)=O	inactive: 6.33%
Cc1ccc2c(c1)C1CN(C)CCC1N2S(=O)(=O)c1cccc(F)c1 (centres undefined)	inactive: 2.18%
O=C(Cn1cnc2ccccc21)N/N=C/C(Br)=C/c1ccccc1	inactive: 2.02%
Cn1c(=O)c2c(ncn2CC(=O)N/N=C/C(Cl)=C/c2ccccc2)n(C)c1=O	inactive: -1.61%
CC(NC(=O)CCCCCNC(=O)N1CCn2c1nc1ccccc12)c1ccccc1 (centres undefined)	inactive: -1.7%
COC(=O)C1(C)COP(=O)(NCc2ccccc2)OC1 (centres undefined)	inactive: -1.6%

SMILES	activation
Cc1ccc2c(c1)C1CN(C)CCC1N2C(=O)COc1ccc(N(C)S(=O)(=O)c2cccs2)cc1 (centres undefined)	inactive: 0.4%
O=C(CCCCCNC(=O)N1CCn2c1nc1ccccc12)N[C@H](C(=O)O)c1ccccc1	inactive: 6.94%
COC(=O)c1ccccc1NC(=O)Cn1c(-c2nonc2N)nc2ccccc21	inactive: 3.69%
CC(C)(C)NC(=O)Cn1c(SCC(=O)Nc2nccs2)nc2ccccc21	inactive: 0.25%
Cc1ccccc1CN(C)C(=O)COC(=O)C(O)(c1ccccc1)c1ccccc1	inactive: 5.36%
Cc1ccccc1Oc1ccc2c(c1)[C@@H]1C[C@H](N(C)C(=O)Nc3cc(Cl)cc(Cl)c3)[C@H]([C@H](C)O)C(=O)N1CC2	inactive: 6.78%
CCOc1ccc(S(=O)(=O)N(C)c2ccc(OCC(=O)N3c4ccc(C)cc4C4CN(C)CCC43)cc2)cc1 (centres undefined)	inactive: 1.57%
Cc1ccc2c(c1)C1CN(C)CCC1N2C(=O)Nc1cccc(Cl)c1 (centres undefined)	inactive: -1.69%
CN(C)CCn1c(N)nc2ccccc21	inactive: 6.38%
CN(C)C(=O)CSc1nc2ccccc2n1CC(=O)N1CCN(c2ccccc2)CC1	inactive: -0.18%
Cc1ccc2c(c1)C1CN(C)CCC1N2Sc1ccccc1[N+](=O)[O-] (centres undefined)	inactive: -0.93%
C[C@H]1OP(=O)(Oc2ccccc2)C[C@@H]2O[C@@H]21 (some centres undefined)	inactive: -1.55%
CCC(=O)Nc1nc2ccccc2n1CCN(C)C	inactive: -0.66%
C[C@@H]1C=CCP(=O)(Oc2ccccc2)O1 (some centres undefined)	inactive: -1.65%
O=C(CCNC(=O)N1CCn2c1nc1ccccc12)NCc1ccccc1Cl	inactive: -5%
C[C@H](O)[C@@H]1C(=O)N2CCc3ccc(-c4ccccc4)cc3[C@@H]2C[C@@H]1N(C)C(=O)c1ccc(C#N)cc1	inactive: 0.92%
O=C(C1COc2ccccc2O1)N1CCn2c(nc3ccccc32)C1 (centres undefined)	inactive: 1.32%
O=C(Cn1cnc2ccccc21)Nc1ccc(C(=O)O)cc1	inactive: -5.23%
CC(C)C[C@H](NC(=O)N1CCn2c1nc1ccccc12)C(=O)NCc1ccccc1	inactive: 5.27%
COc1ccccc1OCC(O)Cn1c(=N)n(CCN2CCCCC2)c2ccccc21 (centres undefined)	inactive: 1.71%
Fc1ccc2c(c1)nnn2C1CCN(Cc2nnnn2CCc2ccccc2)CC1	inactive: -0.39%
COCC(=O)N(C)[C@H]1C[C@H]2c3cc(Oc4ccccc4C)ccc3CCN2C(=O)[C@H]1[C@H](C)O	inactive: -0.25%
CC(C)[C@H](NC(=O)N1CCn2c1nc1ccccc12)C(=O)NCc1ccc(F)cc1	inactive: -1.31%

SMILES	activation
COCCN1CCn2c(nc3cc(NC(=O)Cn4nc(C)c5ccccc5c4=O)ccc32)C1	inactive: -2.34%
COc1ccc(CCNC(=O)[C@H](C)NC(=O)N2CCn3c2nc2ccccc23)cc1OC	inactive: -1.89%
CC(=O)Nc1ccc([As](=O)(O)O)c(O)c1	inactive: -0.82%
CC1=NNC(=O)C1CCC(=O)N/N=C/C=C/c1ccccc1 (centres undefined)	inactive: 0.87%
CSCC[C@H](NC(=O)N1CCn2c1nc1ccccc12)C(=O)NC1CCCCC1	inactive: -0.11%
O=S(=O)(c1ccc(F)cc1)N1CCn2c(nc3ccccc32)C1	inactive: -3.32%
CCC(C(=O)NC1CCCC1)n1c(SCc2cccc(C)c2)nc2ccncc21 (centres undefined)	inactive: 5.98%
CCOC(=O)c1ccc(NC(=O)C2CC(=O)Nc3nc4ccccc4n32)cc1 (centres undefined)	inactive: -0.98%
COc1ccc2c(c1)C1(Nc3ccccc3-c3nc4ccccc4n31)C(=O)N2 (centres undefined)	inactive: -1.74%
Cn1c(=O)c2c(ncn2CC(=O)Nc2cc(S(=O)(=O)N3CCCCC3)ccc2Cl)n(C)c1=O	inactive: 4.08%
CN1C(=O)CC(n2c(CO)nc3ccccc32)C1=O (centres undefined)	inactive: 2.84%
Cc1cc(NC(=O)CSc2nc3ccccc3n2CC(=O)N2CCC(C)CC2)no1	inactive: 5.46%
O=C(CCNC(=O)N1CCn2c1nc1ccccc12)NCc1ccc(Cl)cc1	inactive: 5.88%
Cc1nc2cc(C(F)(F)F)ccc2n1C1CCN(Cc2nnnn2CCc2ccccc2)CC1	inactive: 6.84%
CC(=O)Nc1ccc(Oc2c([N+](=O)[O-])cc([N+](=O)[O-])cc2[N+](=O)[O-])cc1	inactive: -1.28%
CC(C)(C)NC(=O)Cn1c(SCC(N)=O)nc2ccccc21	inactive: -1.91%
CC(C)CCNC(=O)CC1C(=O)N(Cc2ccccc2)C(C)c2nc3ccccc3n21 (centres undefined)	inactive: -3.83%
O=C(Cn1c(NCCO)nc2ccccc21)Nc1ccc2c(c1)OCCCO2	inactive: 4.27%
N#Cc1cccc(NC(=O)Cn2c3[n+](c4ccc(C(F)(F)F)cc42)CCCCC3)c1	inactive: 0.22%
N=c1n(CCCOc2ccccc2Cl)c2ccccc2n1CC(N)=O	inactive: 5.03%
Cc1ccc2c(c1)C1CN(C)CCC1N2C(=O)COc1ccc(N(C)C(=O)c2ccccc2)cc1 (centres undefined)	inactive: -1.25%
C[C@H](NC(=O)N1CCn2c1nc1ccccc12)C(=O)NCc1ccccc1	inactive: -0.17%
CC1CN(C(=O)Cn2cnc3c2c(=O)n(C)c(=O)n3C)CC(C)O1 (centres undefined)	inactive: 2.74%

SMILES	activation
COC(=O)c1ccc(CNC(=O)Cn2cnc3c(NCc4ccccc4)ncnc32)cc1	inactive: -0.7%
COc1cccc(CNC(=O)[C@H](CCSC)NC(=O)N2CCn3c2nc2ccccc23)c1	inactive: 3.6%
Cc1nc2ccccc2n1CC(=O)N1CC(=O)Nc2ccccc21	inactive: 15.4%
CCn1c(=O)c2c(nc3n2CCN3c2ccccc2)n(C)c1=O	inactive: 0.58%
O=C(Cn1cnc2c(OCc3ccccc3)ncnc21)NCc1ccccc1	inactive: -2.99%
O=P1(Nc2nc3ccc(Cl)cc3s2)COc2ccccc2O1 (centres undefined)	inactive: 3.17%
CCOc1ccc(C2=NCC(CBr)S2)cc1 (centres undefined)	inactive: 2.93%
COCCNC(=O)Cn1cnc2c1c(=O)n(C)c(=O)n2C	inactive: -3.7%
COCCN1CCn2c(nc3cc(NC(C)=O)ccc32)C1	inactive: -2.42%
CCc1cc(O)c([N+](=O)[O-])c(C)c1[N+](=O)[O-]	inactive: -0.93%
CCOC(=O)c1ccc(NC(=O)Cn2c(-c3nonc3N)nc3ccccc32)cc1	inactive: 3.72%
CSc1nc2ccccc2n1CC(=O)Nc1c(C)n(C)n(-c2ccccc2)c1=O	inactive: -4.73%
O=C(Cn1c(-c2cncs2)nc2ccccc21)NCCc1ccccc1	inactive: 4.69%
COc1cccc(C(=O)CSc2nc3ccccc3n2CC(=O)N2CCOCC2)c1	inactive: 4.17%
CC(/C=C/c1ccccc1)=N/NC(=O)CCC(=O)Nc1ccccc1C	inactive: 10.5%
Cc1ccc2c(c1)C1C[N+](C)(CC(=O)c3ccccc3)CCC1N2C(=O)c1ccccc1Cl (centres undefined)	inactive: 6.13%
O=C(Cn1c(CO)nc2ccccc21)Nc1ccccc1Cl	inactive: 5.46%
COc1ccc(Cl)cc1NC(=O)CN(C)C(=O)Cn1cnc2c1c(=O)n(C)c(=O)n2C	inactive: 3.78%
CC(C)(C)C(=O)NC(Sc1ccccc1)C(Cl)(Cl)Cl (centres undefined)	inactive: -2.03%
c1ccc(CN2CCC(Nc3nc(-c4cccnc4)nc4ccccc34)CC2)cc1	inactive: 0.13%

Reference: PubChem BioAssay AID504692 (The Scripps Research Institute Molecular Screening Center, 2011)
